The values below come from PubChem BioAssay AID524 (The Scripps Research Institute Molecular Screening Center, 2006).

The list shows a part of the results, in another mix than the full data. Active and inactive are the calls of the source.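 Rule for the calls: active = inhibition above the screen-wide mean inhibition plus 3 SD (cut at about 21% in these data); inactive = the rest.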

The assay has as its target cAMP-dependent protein kinase catalytic subunit alpha (Homo sapiens) (UniProt P17612). The assay is described as follows: PKA catalytic subunit kinase inhibition – biochemical, ATP-depletion luminescence, Kemptide substrate, primary screen (AID 524). The note with it: PKA Kemptide phosphorylation, Kinase-Glo ATP luminescence; at 6 µM; hits give high values.
As for `N#CC1(Nc2ccccc2)CCN(CCc2ccccc2)CC1`, the inhibition (usually the drop in the measured response relative to a control, in per cent) is inactive: 7.6%.

For the compound `COc1ccc(NC2CCN(CCc3ccccc3)CC2)c(OC)c1`, the inhibition is inactive: -4.7%.

On to `O=C(OC1CN2CCC1CC2)C1c2ccccc2Oc2ccccc21` (configuration not stated), for which the inhibition is inactive: 5.9%.

As to `CCOc1ncccc1C(=O)NCC1(N2CCOCC2)CCCCC1`, the inhibition was inactive: 8.2%.

As for `CCC(CO)(C(=O)OC1CN2CCC1CC2)c1ccccc1` (configuration not stated), the inhibition was inactive: -0.8%.

With `Fc1ccccc1NC1CCN(Cc2ccccc2)CC1`, the inhibition was inactive: 8.5%.

On to `N/C(=N\O)c1c(N)no[n+]1[O-]`, for which the inhibition was inactive: 2.6%.
